Rango-impB inh: Rango-importin beta binding inhibition; 340,000 tested, 0.031% active; Q14974; Rango CFP/YFP FRET sensor + importin beta, 45 min; Potency, µM (highest dose often 92.2 µM), for the others: at the highest dose inhibition of complex formation;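 also: potency is read from the fitted curve at half-maximal effect; 0% = DMSO wells and 100% = buffer wells lacking importin beta; nearly all actives have a fitted effect of over 15% in size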
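FRET biosensor Rango (snurportin 1 IBB between N-terminal EYFP and C-terminal Cerulean), 50 nM in PBS/1 mM DTT/0.02% Tween-20/0.1% BSA, preincubated 5 min RT with compound; 0.125 microM importin beta added, 45 min RT, CFP/YFP FRET ratio read.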
Rango dissoc inh: inhibitors of RanGTP-induced Rango-importin beta complex dissociation. Biochemical FRET Rango-importin beta, RanGTP-induced dissociation. Potency, µM (top dose mostly 46.1 µM), for inactives: at the top dose activity change, negative = inhibition. 340,000 tested, 0.071% active. O95149+P62826; also: potency is read from the fitted curve at half-maximal effect; % of control where 0% means no effect; nearly all actives have a fitted effect of over 45% in size
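Rango/importin beta premix (0.1/0.25 uM final), PBS + 1 mM DTT + 0.02% Tween-20 + 0.1% BSA; cpd 5 min RT; FRET pre-read; + RanGTP-RCC1 (0.6 uM Ran, 2 mM GTP, 0.2 uM RCC1); 45 min RT; FRET post-read, ex 430, em 486/530 nm.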
KCNH2 WT inh: inhibitors of human wildtype KCNH2 potassium channel; AID 720551; Q12809; 340,000 tested, 0.37% active; activity change, % at 1.84 µM; U2OS, BacMam KCNH2, thallium flux FluxOr; active compounds read low;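 active = maximum activity change below -70%; inconclusive = maximum activity change between -70% and -50%; inactive = maximum activity change above -50%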; also: % is scaled to controls: 0 for no effect and ±100 for the full control effect
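U2OS cells were transduced with wild-type KCNH2 virus (2.03 x 10^8 / mL) for 4 h at room temperature, then cultured overnight at 37 C. Thallium flux was read with FluxOr dye. Rate constants were normalized to DMSO controls.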
KCNH2 3.1 block: blocks the human KCNH2 3.1 channel isoform. U2OS KCNH2 3.1, thallium flux FluxOr; active compounds read low. activity change, % (tested at about 1.8 µM). 340,000 tested, 0.95% active;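 active = maximum activity change below -70%; inconclusive = maximum activity change from -70% to -50%; inactive = maximum activity change above -50%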;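 also: thallium influx rate constant from kinetic fluorescence after stimulation buffer; % is scaled to controls: 0 for no effect and ±100 for the full control effect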
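Channel expression came from 3.1 mutant virus (1.77 x 10^8 /mL) applied to suspended U2OS cells for 4 h. Flux was tracked with FluxOr dye plus Red40 quencher, and kinetic rate constants normalized to controls.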
An asterisk follows results filed as active; ? = inconclusive. Most compounds without a hit are left out; they make up all but 1.3% or so of the library. Unless noted, calls follow the shape of the full dose curve.

| Structure | Rango-impB inh | Rango dissoc inh | KCNH2 WT inh | KCNH2 3.1 block |
| --- | --- | --- | --- | --- |
| Cc1cc(NC(=O)Cn2c(=O)c3c(ncn3CC(C)C)n(Cc3ccccc3)c2=O)no1 | 0% | 7% | -15 | -10 |
| CC(C)Cn1cnc2c1c(=O)n(CC(=O)Nc1ccc3c(c1)OCO3)c(=O)n2Cc1ccccc1 | -2% | -9% | -86* | 3 |
| COc1ccc(N(C)C(=O)C2CCCN2S(=O)(=O)c2cccc3nsnc23)c(OC)c1 (centres undefined) | -1% | 20% | -208* | -7 |
| COc1ccc2cc(Br)ccc2c1CC(=O)NC1CC(C)(C)NC(C)(C)C1 | 5% | -14% | -123* | -3 |
| CCNC(=O)Cc1c(OC)ccc2cc(Br)ccc12 | 0% | -2% | -4 | 11 |
| Cc1nc(-c2cccc(S(=O)(=O)N3CCCC(C)C3)c2)cs1 (centres undefined) | -2% | -9% | 4 | -1 |
| CC1CCCN(S(=O)(=O)c2cccc(-c3cn4cccnc4n3)c2)C1 (centres undefined) | -1% | 11% | 7 | -110* |
| Cc1cnc(C(=O)OCC(=O)NCc2cccc(Cl)c2)cn1 | 0% | 15% | -1 | -8 |
| COc1cccc(OCC(O)CN2CCN(c3ccc(Cl)cc3)CC2)c1 (centres undefined) | 5% | 0% | 35 | -34 |
| Cc1cc(OCC(O)CN2CCc3ccccc3C2)ccc1Cl (centres undefined) | -5% | 6% | 10 | -80* |
| COc1ccc(OCC(O)CN2CCN(c3ccc(Cl)cc3)CC2)cc1 (centres undefined) | 1% | -15% | 26 | -84* |
| CCOc1ccc(OCC(O)CN2CCc3ccccc3C2)cc1 (centres undefined) | -1% | 7% | 32 | ? |
| CC(=O)Nc1ccc(OCC(O)CN2CCN(c3cccc(Cl)c3)CC2)cc1 (centres undefined) | 0% | 6% | 9 | 0 |
| OC(COCc1ccc(Cl)cc1)CN1CCN(CC(O)COCc2ccc(Cl)cc2)CC1 (centres undefined) | 1% | -7% | 2 | -88* |
| OC(COc1ccc(Cl)cc1)CN1CCN(c2cccc(Cl)c2)CC1 (centres undefined) | -1% | 0% | 7 | -78* |
| Cc1ccc(NC(=O)CCC(=O)c2ccc(Cl)s2)nc1 | 0% | 13% | -18 | -2 |
| CC1(C2CC2)NC(=O)N(CC(=O)N2CCN(S(=O)(=O)c3ccc(F)c(F)c3)CC2)C1=O (centres undefined) | 0% | -6% | -2 | -4 |
| CCCn1c(SCC(=O)Nc2cc(S(=O)(=O)N3CCCCC3)ccc2C)n[nH]c1=O | 0% | -1% | -17 | -10 |
| Cc1cccc(N2CCN(CC(O)COc3ccc(Cl)cc3)CC2)c1 (centres undefined) | 3% | 1% | 4 | -79* |
| Cc1cccc(N2CCN(CC(O)COc3ccccc3)CC2)c1 (centres undefined) | -3% | -8% | 42 | -2 |
| CCOc1ccc(NC(=O)C2C3C=CC4(O3)C2C(=O)N(Cc2cccnc2)C4C(=O)NC2CCCCC2)cc1 (centres undefined) | 3% | 1% | 2 | 0 |
| C[C@H](NS(=O)(=O)c1ccc2c(c1)OCCCO2)C(=O)N1CCN(c2ccc(F)cc2)CC1 | 0% | 0% | 2 | -15 |
| Cc1noc(C)c1C(=O)OCC(=O)NCCc1ccc(S(N)(=O)=O)cc1 | 4% | -14% | -10 | -84* |
| Cc1noc(C)c1C(=O)OCC(=O)NCCc1ccccc1 | -2% | -16% | -24 | 15 |
| O=C(c1ccc(Cl)cc1)N1CCN(C(=O)C2CCCCC2)CC1 | 1% | 1% | -8 | -1 |
| O=C(c1ccc([N+](=O)[O-])cc1)N1CCN(C(=O)C2CCCCC2)CC1 | -1% | -6% | 0 | -71* |
| Cc1ccc(OS(=O)(=O)c2ccc(N3C(=O)CCC3=O)cc2)cc1 | 1% | 6% | -5 | 1 |
| CCCN1C2CCCC1CC(NC(=O)Nc1ccc(C(C)C)cc1)C2 (centres undefined) | 1% | -5% | -10 | -74* |
| CCCN1C2CCCC1CC(NC(=O)Nc1cccc(C(C)=O)c1)C2 (centres undefined) | -1% | -7% | 4 | 5 |
| CCCCn1c(/C=N/Nc2nc3ccccc3[nH]2)nc2ccccc21 | ? | -16% | -73* | -44 |
| CN(C(=O)COC(=O)CNC(=O)c1ccc2ccccc2c1)c1c(N)n(Cc2ccccc2)c(=O)[nH]c1=O | ? | 15% | 8 | -2 |
| COC(=O)COc1ccc2c(-c3ccc(OC)cc3)cc(=O)oc2c1 | 1% | 7% | ? | -79* |
| O=C(COc1ccccc1)N1CCN(S(=O)(=O)Cc2ccccc2)CC1 | -1% | -9% | -269* | -9 |
| NS(=O)(=O)c1ccc(NC(=O)CN2CCc3ccccc3C2)cc1 | -1% | -5% | 6 | -9 |
| O=C(O)CC/C(=N\NC(=O)c1ccncc1)c1ccccc1 | 4% | -9% | -134* | -161* |
| O=C(O)CC/C(=N\NC(=O)c1ccccc1)c1cccs1 | 0% | 1% | -26 | -4 |
| Cn1c(CSCc2ccc(Cl)cc2Cl)n[nH]c1=S | -6% | -5% | 13 | -4 |
| CSc1nnc(CSCc2ccc(Cl)cc2Cl)n1-c1ccccc1 | 0% | 18% | -5 | -84* |
| CC(=O)N(C)c1ccc(NC(=O)Cc2cccs2)cc1 | 1% | ? | -1 | 15 |
| O=[N+]([O-])c1ccccc1-c1ccc(C(=S)N2CCN(c3ccccc3)CC2)o1 | 0% | -1% | -16 | 12 |

Five entries picked at random from the list so far:
| Structure | Rango-impB inh | Rango dissoc inh | KCNH2 WT inh | KCNH2 3.1 block |
| --- | --- | --- | --- | --- |
| COC(=O)COc1ccc2c(-c3ccc(OC)cc3)cc(=O)oc2c1 | 1% | 7% | ? | -79* |
| CC(C)Cn1cnc2c1c(=O)n(CC(=O)Nc1ccc3c(c1)OCO3)c(=O)n2Cc1ccccc1 | -2% | -9% | -86* | 3 |
| COc1ccc(OCC(O)CN2CCN(c3ccc(Cl)cc3)CC2)cc1 (centres undefined) | 1% | -15% | 26 | -84* |
| OC(COCc1ccc(Cl)cc1)CN1CCN(CC(O)COCc2ccc(Cl)cc2)CC1 (centres undefined) | 1% | -7% | 2 | -88* |
| CC1CCCN(S(=O)(=O)c2cccc(-c3cn4cccnc4n3)c2)C1 (centres undefined) | -1% | 11% | 7 | -110* |

Other entries follow.
| Structure | Rango-impB inh | Rango dissoc inh | KCNH2 WT inh | KCNH2 3.1 block |
| --- | --- | --- | --- | --- |
| N#C/C(=C\c1ccc(-c2ccccc2[N+](=O)[O-])o1)C(=O)N1CCOCC1 | -3% | -2% | 0 | -79* |
| CN(C)CCN(Cc1ccco1)C(=O)c1oc2ccccc2c1NC(=O)COc1ccccc1 | 3% | 10% | -33 | -95* |
| Cc1ccc2c(c1)N(C(=O)CCC(=O)NCCN1CCOCC1)CCO2 | -3% | 21% | -3 | 23 |
| Cc1ccc2c(c1)N(C(=O)CCC(=O)NCCCN1CCOCC1)CCO2 | -2% | -21% | -4 | -128* |
| Cc1ccc(S(=O)(=O)NNC(=O)c2ccccc2O)cc1 | -1% | 5% | 0 | 18 |
| Cc1ccc(S(=O)(=O)NNC(=O)c2csnn2)cc1 | 52µM* | ? | -16 | -11 |
| O=C(NCc1ccccc1)c1cccc(OCC(=O)N2CCN(C(=O)c3ccco3)CC2)c1 | 1% | 19% | 5 | -97* |
| O=C(O)c1nn(CC(=O)N2CCN(c3ncc(C(F)(F)F)cc3Cl)CC2)c(=O)c2ccccc12 | 0% | 0% | 1 | -18 |
| O=C(COc1coc(CN2CCCc3ccccc32)cc1=O)Nc1ccc([N+](=O)[O-])cc1 | -4% | -12% | -6 | -10 |
| OCC1(Cc2ccccc2)CCN(C2CCN(c3ccc(F)c(F)c3)CC2)CC1 | 0% | 3% | -31 | -91* |
| COC(=O)C1=C(C)NC(c2c(O)ccc3ccccc23)C(C(=O)OC)=C1C (centres undefined) | 1% | 9% | 8 | -85* |

Bioassay records from PubChem BioAssay.
